# Assay results published in article PMC11393638 (Regulatory toxicology and pharmacology : RTP, 2023).
# Where two headings read alike, the source gives them in different places.
# Columns and labels:
# [1] = system: CYP2C19-expressing TK6 cells; assay: TK and HPRT gene mutation assays in CYP2C19-expressing TK6 cells; format: cell-based, human; conditions: for Relative survival (%): 4-h treatment, CYP2C19-expressing TK6 cells, no S9
# [2] = system: TA98
# [3] = system: TA100
# [4] = system: TA1535
# [5] = system: 2D HepaRG cells; conditions: 24 h
# [6] = system: 3D HepaRG spheroids; conditions: 24 h
# [7] = system: TK6 cells transduced with CYP2C19; conditions: 24 h
# [8] = system: CYP1A1-expressing TK6 cells; conditions: 10 μM; 24 h without exogenous metabolism
# [9] = system: CYP2C9-expressing TK6 cells; conditions: 10 μM; 24 h without exogenous metabolism
# [10] = system: CYP2C19-expressing TK6 cells; conditions: 0.5 μM; 24-h treatment
# [11] = system: TK6 cells; assay: In vitro micronucleus assay in TK6 cells
# [12] = system: TK6 cells; assay: TK and HPRT gene mutation assays in TK6 cells with hamster liver S9; conditions: for Relative survival (%): 4-h treatment, TK6 cells with 1% hamster liver S9
# [13] = 10% hamster liver S9, preincubation 30 min
# [14] = 10% hamster liver S9, preincubation 60 min
# [15] = 10% rat liver S9, preincubation 30 min
# [16] = 30% hamster liver S9, preincubation 30 min
# [17] = 30% hamster liver S9, preincubation 60 min
smiles,measurement,setting,value
"CC(C)N(CC(O)COc1cccc2ccccc12)N=O (stereo not shown) [NNP, N-nitroso propranolol]",Relative survival (%),[1]; 0.0625 μM,100.1%
same,Relative survival (%),[1]; 0.125 μM,76.3%
same,Relative survival (%),[1]; 0.25 μM,75.2%
same,"Fold MF increase over control, HPRT gene",[1]; 0.5 μM,11.5 fold
same,"Fold MF increase over control, TK gene",[1]; 0.5 μM,4.3 fold
same,Relative survival (%),[1]; 0.5 μM,41.8%
same,Relative survival (RS),"[1]; 0.5 μM, second independent (repeat) experiment",39.4%
same,U/L (ratio of the BMDU to BMDL),[2]; [13],1.8
same,U/L (ratio of the BMDU to BMDL),[2]; [14],2.1
same,U/L (ratio of the BMDU to BMDL),[2]; [15],1.7
same,U/L (ratio of the BMDU to BMDL),"[2]; 10% rat liver S9, preincubation 60 min",1.6
same,U/L (ratio of the BMDU to BMDL),[2]; [16],1.7
same,U/L (ratio of the BMDU to BMDL),[2]; [17],1.7
same,U/L (ratio of the BMDU to BMDL),"[2]; 30% rat liver S9, preincubation 30 min",1.7
same,U/L (ratio of the BMDU to BMDL),"[2]; 30% rat liver S9, preincubation 60 min",1.6
same,U/L (ratio of the BMDU to BMDL),"[2]; without S9, preincubation 30 min",2.5
same,U/L (ratio of the BMDU to BMDL),"[2]; without S9, preincubation 60 min",1.7
same,U/L (ratio of the BMDU to BMDL),[3]; [13],3.6
same,U/L (ratio of the BMDU to BMDL),[3]; [14],2.4
same,U/L (ratio of the BMDU to BMDL),[3]; [16],2.7
same,U/L (ratio of the BMDU to BMDL),[3]; [17],2.5
same,U/L (ratio of the BMDU to BMDL),[4]; [13],3.8
same,U/L (ratio of the BMDU to BMDL),[4]; [14],3.1
same,U/L (ratio of the BMDU to BMDL),[4]; [15],3.0
same,U/L (ratio of the BMDU to BMDL),[4]; [16],3.4
same,U/L (ratio of the BMDU to BMDL),[4]; [17],2.8
same,Relative viability (ATP assay),"[5]; 250 μM, 2D cultured cells",82%
same,Fold increase in % tail DNA compared to control,"[5]; highest concentration, 2D cultures",9 fold
same,Relative viability (ATP assay),"[6]; 250 μM, 3D spheroids",56%
same,Fold increase in % tail DNA compared to control,"[6]; highest concentration, 3D cultures",13 fold
same,Maximum fold increase in %MN,[7]; 0.5 μM (highest concentration tested),5.8 fold
same,Decrease in relative nuclear count (cytotoxicity),[7]; 0.5 μM,42%
same,Fold increase in %MN,[8],3.6 fold
same,Fold increase in %MN,[9],1.6 fold
same,Fold increase in γH2A.X fluorescence signal over the controls,[10],more than 3 fold
same,Fold increase in %MN over controls,"[11]; 2.5 μM, 24-h continuous incubation with 0.4% hamster liver S9",4.4 fold
same,Fold increase in %MN over controls,"[11]; 100 μM, 4-h treatment with 2% hamster liver S9",4.1 fold
same,Potency in inducing MN relative to NDEA,"[11]; 4-h and 24-h treatments in the presence of S9, NDEA at 100 μM",more potent than NDEA
same,Relative survival (%),[12]; 50 μM,115.3%
same,Relative survival (%),[12]; 100 μM,108.7%
same,Relative survival (%),[12]; 200 μM,86.0%
same,Relative survival (%),[12]; 300 μM,65.9%
same,Mutagenicity on a molar basis relative to NDEA,"[12]; TK6 cells, 1% hamster liver S9, NDEA at 100 μM",lower than NDEA
